# Values quoted from earlier work, collected in patent US7138231B2 (priority 2000, dated 2006).
# Test system: HIV-1
# Conditions: cited from earlier work
smiles,measurement,setting,value
Cc1c(O)cccc1C(=O)N[C@@H](CSc1ccccc1)[C@H](O)CN1C[C@H]2CCCC[C@H]2C[C@H]1C(=O)NC(C)(C)C [nelfinavir],effects when combined with other antiretroviral drugs,,additive-to-synergistic effects
CC(C)(C)NC(=O)[C@@H]1C[C@@H]2CCCC[C@@H]2CN1C[C@@H](O)[C@H](Cc1ccccc1)NC(=O)[C@H](CC(N)=O)NC(=O)c1ccc2ccccc2n1 [saquinavir],IC90,read-out: 90% inhibitory concentration (IC90),6 nM
